# Experimental data: patent US7026280B2, “LV V-Haemorphin-7 neuroactive peptide and methods of use” (Howard Florey Institute of Experimental Physiology, priority 1996, dated 2006)
# Tested on: embryonic chicken sympathetic neurons
# Assay: Neurite outgrowth from cultured E11 chicken sympathetic neurons
# Details: 10^−8 M Ang IV; test substance 1 μM
smiles,measurement,value
CCCC[C@H](N)C(=O)N[C@@H](Cc1ccc(O)cc1)C(=O)N[C@H](C(=O)N[C@@H](Cc1c[nH]cn1)C(=O)N1CCC[C@H]1C(=O)N[C@@H](Cc1ccccc1)C(=O)O)[C@@H](C)CC,Effect on the inhibition of neurite outgrowth by Ang IV,totally reversed
